Only a part is listed here, and it is no random draw. Inconclusive results are not listed. The source made the active and inactive calls. Calls follow the shape of the dose curve; as a rule, active = well fitted inhibition curve with a large enough effect; inconclusive = small, poorly fitted or top-dose-only effect; inactive = flat fitted curve, though single readings scatter.
System: NanoLuc luciferase (engineered Oplophorus gracilirostris luciferase)
Test: Biochemical coelenterazine-based NLuc counterscreen for small molecule modulators of PMP22 gene expression - Km assay;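 also: substrate at 15 µM coelenterazine with 5 min compound preincubation before enzyme addition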
Details: secreted NLuc enzyme, coelenterazine luminescence, Km conditions; at 57.5 µM (top of the series)
Description: Assay Provider: Jim Inglese Ph.D. National Center for Advancing Translational Science, National Institutes of Health, Rockville, MD CMT is a heterogeneous group of neurological disorders that affect approximately 1 in 2,500 people. In particular, the most common form of CMT, CMT1A is genetically linked to the duplication of the PMP22 gene which leads to Schwann cell overexpression, thus manifesting itself as a typical case of dose-sensitive diseases. […] We can further discriminate the effect of all transcriptionally active molecules on PMP22 translation or stability with an assay that incorporates a short NLuc peptide (HiBiT) at the C-terminus of expressed PMP22 (S16(f8) PMP22-HiBiT) allowing alpha complementation and luminescence detection of membrane-associated PMP22 protein. […] Miniaturization of these assays to 1536-well plate format for quantitative high throughput screening (qHTS) yielded rich data sets immediately from the qHTS assay (S16(c9) Pmp22-F2sN), when compared with data from a cell viability assay (Cell TiterGlo) to identify compounds that decreased the output signals through cellular toxicity to streamline the selection process of actives for subsequent characterization using the HiBiT assay (S16(f8) PMP22-HiBiT). […]
% is scaled to controls: 0 for no effect and ±100 for the full control effect.

CC(C)(C)c1ccc(C(=O)NCC2(N3CCOCC3)CCCCC2)cc1
activity change, negative = inhibition: inactive: 1.38%
